Common to all, as to assay type: protein-complex assay
The target of test [1] is T1, Integrin alpha-4/beta-1 (Homo sapiens, UniProt P05556+P13612). Kind of test: Inhibition of alpha4beta1 integrin-mediated human jurkat cell adhesion to fibronectin in presence of human serum albumin.
A further test concerns the target T2, Integrin alpha-4/beta-7 (Homo sapiens, UniProt P13612+P26010).
T2 sequence (P13612 whole entry): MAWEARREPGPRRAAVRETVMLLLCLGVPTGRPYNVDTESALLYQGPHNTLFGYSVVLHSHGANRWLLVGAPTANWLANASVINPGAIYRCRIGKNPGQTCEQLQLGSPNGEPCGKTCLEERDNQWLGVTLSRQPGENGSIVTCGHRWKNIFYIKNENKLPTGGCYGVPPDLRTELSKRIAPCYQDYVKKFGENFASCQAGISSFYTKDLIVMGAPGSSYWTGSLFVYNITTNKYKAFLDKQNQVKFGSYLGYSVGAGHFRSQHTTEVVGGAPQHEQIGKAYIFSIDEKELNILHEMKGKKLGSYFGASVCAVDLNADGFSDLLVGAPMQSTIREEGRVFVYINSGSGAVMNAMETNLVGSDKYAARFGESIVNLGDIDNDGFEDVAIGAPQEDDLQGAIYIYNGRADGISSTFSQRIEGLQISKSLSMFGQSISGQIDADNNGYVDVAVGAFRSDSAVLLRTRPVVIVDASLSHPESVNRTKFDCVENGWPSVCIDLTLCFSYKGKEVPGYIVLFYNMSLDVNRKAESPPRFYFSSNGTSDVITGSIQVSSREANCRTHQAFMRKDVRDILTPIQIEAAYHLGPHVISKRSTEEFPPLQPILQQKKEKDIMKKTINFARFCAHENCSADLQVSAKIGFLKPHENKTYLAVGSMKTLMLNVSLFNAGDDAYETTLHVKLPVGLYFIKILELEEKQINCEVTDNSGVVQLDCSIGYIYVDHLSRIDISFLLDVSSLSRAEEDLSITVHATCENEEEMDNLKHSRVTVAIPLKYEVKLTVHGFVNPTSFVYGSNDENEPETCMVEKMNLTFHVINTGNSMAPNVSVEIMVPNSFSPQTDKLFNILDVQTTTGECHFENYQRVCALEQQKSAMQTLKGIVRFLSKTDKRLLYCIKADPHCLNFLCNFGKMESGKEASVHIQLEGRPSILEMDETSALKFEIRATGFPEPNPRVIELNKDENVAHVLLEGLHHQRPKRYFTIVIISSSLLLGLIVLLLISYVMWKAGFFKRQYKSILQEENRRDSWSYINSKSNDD
T2 sequence (P26010 whole entry): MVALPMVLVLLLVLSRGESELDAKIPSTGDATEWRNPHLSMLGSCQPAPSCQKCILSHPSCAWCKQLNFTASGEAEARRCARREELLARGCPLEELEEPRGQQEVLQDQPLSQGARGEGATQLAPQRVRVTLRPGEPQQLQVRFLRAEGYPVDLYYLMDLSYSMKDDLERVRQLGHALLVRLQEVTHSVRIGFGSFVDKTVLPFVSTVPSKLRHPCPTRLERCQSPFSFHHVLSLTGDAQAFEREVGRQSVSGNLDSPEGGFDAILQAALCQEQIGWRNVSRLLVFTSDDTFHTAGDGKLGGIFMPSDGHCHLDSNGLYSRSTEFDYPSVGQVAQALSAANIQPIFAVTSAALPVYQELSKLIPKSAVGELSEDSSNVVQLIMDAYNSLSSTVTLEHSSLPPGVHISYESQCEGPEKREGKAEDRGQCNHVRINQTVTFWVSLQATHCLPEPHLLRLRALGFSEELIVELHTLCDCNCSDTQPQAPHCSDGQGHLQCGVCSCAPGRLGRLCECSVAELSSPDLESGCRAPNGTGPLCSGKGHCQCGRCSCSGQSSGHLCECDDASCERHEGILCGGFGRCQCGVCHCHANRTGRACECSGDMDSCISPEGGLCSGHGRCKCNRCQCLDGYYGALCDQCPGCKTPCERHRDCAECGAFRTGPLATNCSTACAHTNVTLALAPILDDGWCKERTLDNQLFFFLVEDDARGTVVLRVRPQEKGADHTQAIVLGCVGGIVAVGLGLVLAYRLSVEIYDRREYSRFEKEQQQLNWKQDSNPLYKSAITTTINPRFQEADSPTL
Kind of test: Inhibition of alpha4beta7 integrin-mediated human 8866 cell adhesion to MadCAM-1.

Chains of the proteins cited; added tags and fusions are not shown.
UniProt P05556, whole entry: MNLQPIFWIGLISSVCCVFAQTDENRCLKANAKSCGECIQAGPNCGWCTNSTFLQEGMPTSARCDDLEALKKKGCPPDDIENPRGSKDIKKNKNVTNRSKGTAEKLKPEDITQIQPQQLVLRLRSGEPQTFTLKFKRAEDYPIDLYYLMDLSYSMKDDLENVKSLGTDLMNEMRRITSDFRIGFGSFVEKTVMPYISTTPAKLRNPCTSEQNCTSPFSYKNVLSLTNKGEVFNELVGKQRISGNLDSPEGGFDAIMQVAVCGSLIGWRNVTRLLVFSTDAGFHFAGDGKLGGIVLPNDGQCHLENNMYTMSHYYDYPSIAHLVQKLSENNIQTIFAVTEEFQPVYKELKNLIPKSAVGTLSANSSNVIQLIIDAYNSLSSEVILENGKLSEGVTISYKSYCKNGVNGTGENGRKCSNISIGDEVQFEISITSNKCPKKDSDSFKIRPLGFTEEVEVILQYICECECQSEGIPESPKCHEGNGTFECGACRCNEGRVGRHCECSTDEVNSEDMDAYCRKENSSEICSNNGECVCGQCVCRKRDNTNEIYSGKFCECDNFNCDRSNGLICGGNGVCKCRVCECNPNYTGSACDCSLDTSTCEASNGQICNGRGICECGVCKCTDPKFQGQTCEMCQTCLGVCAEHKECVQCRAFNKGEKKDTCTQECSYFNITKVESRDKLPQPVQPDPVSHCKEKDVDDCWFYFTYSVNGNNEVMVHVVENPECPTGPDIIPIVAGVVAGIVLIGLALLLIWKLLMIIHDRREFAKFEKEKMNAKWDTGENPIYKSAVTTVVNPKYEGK

Test [2] concerns the target T1, Integrin alpha-4/beta-1. Briefly: Inhibition of alpha4beta1 integrin-mediated human jurkat cell adhesion to fibronectin in absence of human serum albumin.

Structures are written as SMILES.

Consider `CCN(CC)c1ncc(-c2c(C)noc2C)c(N[C@@H](Cc2ccc(OC(=O)N(C)C)cc2)C(=O)O)n1`, for which the values for the IC50 at Integrin alpha-4/beta-1 [1], at Integrin alpha-4/beta-7 and at Integrin alpha-4/beta-1 [2] were 24500 nM, 510 nM and 37 nM, respectively.
For `C#CCN(c1cnc(N(CC)CC)nc1N[C@@H](Cc1ccc(OC(=O)N2CCCC2)cc1)C(=O)O)S(=O)(=O)c1ccc(F)cc1`, in that order: 4600 nM, 10700 nM and 11 nM.
In the case of `CCN(CC)c1ncc(N(CC)C(C)=O)c(N[C@@H](Cc2ccc(OC(=O)N3CCCC3)cc2)C(=O)O)n1`, the IC50 worked out at 823 nM on Integrin alpha-4/beta-1 [1], 31 nM on Integrin alpha-4/beta-7 and 3.2 nM at Integrin alpha-4/beta-1 [2].
With `CCN(CC)c1ncc(N(CC)c2ccc(F)cc2)c(N[C@@H](Cc2ccc(OC(=O)N3CCCC3)cc2)C(=O)O)n1`, the half-inhibitory concentration (IC50) on Integrin alpha-4/beta-7 was 311 nM; against Integrin alpha-4/beta-1 [2], 589 nM.
As for `CCN(CC)c1ncc(N(CC)c2ccccn2)c(N[C@@H](Cc2ccc(OC(=O)N3CCCC3)cc2)C(=O)O)n1`, the 50% inhibitory concentration (IC50) came to 3000 nM against Integrin alpha-4/beta-7 and 366 nM on Integrin alpha-4/beta-1 [2].
As for `CCN(CC)c1ncc(N(CC)c2cccnc2)c(N[C@@H](Cc2ccc(OC(=O)N3CCCC3)cc2)C(=O)O)n1`, the half-inhibitory concentration (IC50) came to 17200 nM at Integrin alpha-4/beta-1 [1], 156 nM at Integrin alpha-4/beta-7 and 59 nM at Integrin alpha-4/beta-1 [2].
The matching figures for `CCN(CC)c1ncc(N(CC)c2ncccn2)c(N[C@@H](Cc2ccc(OC(=O)N3CCCC3)cc2)C(=O)O)n1`: 8300 nM, 321 nM and 80 nM.
`CCN(CC)c1ncc(N(C)S(C)(=O)=O)c(N[C@@H](Cc2ccc(OC(=O)N3CCCC3)cc2)C(=O)O)n1`: the values for the IC50 at Integrin alpha-4/beta-1 [1], against Integrin alpha-4/beta-7 and on Integrin alpha-4/beta-1 [2] were 17500 nM, 179 nM and 26.8 nM, respectively.
Take `C#CCN(c1cnc(N(CC)CC)nc1N[C@@H](Cc1ccc(OC(=O)N2CCCC2)cc1)C(=O)O)S(C)(=O)=O`: the IC50 on Integrin alpha-4/beta-1 [1] stood at 10600 nM; against Integrin alpha-4/beta-7 it was 510 nM; against Integrin alpha-4/beta-1 [2], 22.5 nM.
The matching figures for `CCN(CC)c1ncc(N(CCc2ccccc2)S(C)(=O)=O)c(N[C@@H](Cc2ccc(OC(=O)N3CCCC3)cc2)C(=O)O)n1`: 2250 nM, 262 nM and 9.5 nM.
As to `CCN(CC)c1ncc(N(C(C)C)S(C)(=O)=O)c(N[C@@H](Cc2ccc(OC(=O)N3CCCC3)cc2)C(=O)O)n1`, the IC50 on Integrin alpha-4/beta-1 [1] is 7220 nM; on Integrin alpha-4/beta-7, 223 nM; on Integrin alpha-4/beta-1 [2], 22.7 nM.
Consider `CCN(CC)c1ncc(N(C2CCCC2)S(C)(=O)=O)c(N[C@@H](Cc2ccc(OC(=O)N3CCCC3)cc2)C(=O)O)n1`, for which the IC50 worked out at 18600 nM on Integrin alpha-4/beta-1 [1], 1370 nM against Integrin alpha-4/beta-7 and 127 nM against Integrin alpha-4/beta-1 [2].
Consider `CCN(CC)c1ncc(N(c2cccc(F)c2)S(C)(=O)=O)c(N[C@@H](Cc2ccc(OC(=O)N3CCCC3)cc2)C(=O)O)n1`, for which the IC50 is 23400 nM on Integrin alpha-4/beta-1 [1], 483 nM on Integrin alpha-4/beta-7 and 50 nM against Integrin alpha-4/beta-1 [2].
For `CCN(CC)c1ncc(N(c2ccc(F)cc2)S(C)(=O)=O)c(N[C@@H](Cc2ccc(OC(=O)N3CCCC3)cc2)C(=O)O)n1`, in that order: 9550 nM, 1050 nM and 158 nM.
For `CCN(CC)c1ncc(N(c2ccccn2)S(C)(=O)=O)c(N[C@@H](Cc2ccc(OC(=O)N3CCCC3)cc2)C(=O)O)n1`, in that order: 61700 nM, 468 nM and 128 nM.
For `CCN(CC)c1ncc(N(c2cccnc2)S(C)(=O)=O)c(N[C@@H](Cc2ccc(OC(=O)N3CCCC3)cc2)C(=O)O)n1`, the IC50 amounted to 3500 nM on Integrin alpha-4/beta-1 [1], 594 nM on Integrin alpha-4/beta-7 and 10.3 nM on Integrin alpha-4/beta-1 [2].
The matching figures for `CCN(CC)c1ncc(N(c2ccncc2)S(C)(=O)=O)c(N[C@@H](Cc2ccc(OC(=O)N3CCCC3)cc2)C(=O)O)n1`: 2550 nM, 151 nM and 37.9 nM.
Turning to `CCN(CC)c1ncc(N(c2ncccn2)S(C)(=O)=O)c(N[C@@H](Cc2ccc(OC(=O)N3CCCC3)cc2)C(=O)O)n1`, the IC50 was 3680 nM against Integrin alpha-4/beta-7 and 888 nM on Integrin alpha-4/beta-1 [2].
For `CCN(CC)c1ncc(N(CC)C(=O)C(F)(F)F)c(N[C@@H](Cc2ccc(OC(=O)N3CCCC3)cc2)C(=O)O)n1`, the IC50 is 268 nM at Integrin alpha-4/beta-1 [1], 30 nM against Integrin alpha-4/beta-7 and 3.4 nM against Integrin alpha-4/beta-1 [2].
On to `CCN(CC)c1ncc(N(CC)C(=O)c2ccccc2F)c(N[C@@H](Cc2ccc(OC(=O)N3CCCC3)cc2)C(=O)O)n1`, for which the IC50 was determined as 1290 nM at Integrin alpha-4/beta-1 [1], 104 nM against Integrin alpha-4/beta-7 and 2.8 nM on Integrin alpha-4/beta-1 [2].
The matching figures for `CCN(CC)c1ncc(N(CC)C(=O)c2cccc(F)c2)c(N[C@@H](Cc2ccc(OC(=O)N3CCCC3)cc2)C(=O)O)n1`: 656 nM, 55 nM and 2.3 nM.
For `CCN(CC)c1ncc(N(CC)C(=O)c2ccc(F)cc2)c(N[C@@H](Cc2ccc(OC(=O)N3CCCC3)cc2)C(=O)O)n1`, in that order: 331 nM, 50 nM and 1.3 nM.
For `CCN(CC)c1ncc(N(CC)C(=O)c2cccs2)c(N[C@@H](Cc2ccc(OC(=O)N3CCCC3)cc2)C(=O)O)n1`, in that order: 2380 nM, 29 nM and 1.6 nM.
For the compound `CCN(CC)c1ncc(N(CC)C(=O)c2ccsc2)c(N[C@@H](Cc2ccc(OC(=O)N3CCCC3)cc2)C(=O)O)n1`, the results for the half-maximal inhibitory concentration (IC50) at Integrin alpha-4/beta-1 [1], against Integrin alpha-4/beta-7 and against Integrin alpha-4/beta-1 [2] were 1790 nM, 36 nM and 1.8 nM, respectively.
For `CCN(CC)c1ncc(N(CC)C(=O)c2ccoc2)c(N[C@@H](Cc2ccc(OC(=O)N3CCCC3)cc2)C(=O)O)n1`, in that order: 297 nM, 62 nM and 4.7 nM.
Take `CCN(CC)c1ncc(N(CC)C(=O)c2ccccn2)c(N[C@@H](Cc2ccc(OC(=O)N3CCCC3)cc2)C(=O)O)n1`: the values for the IC50 on Integrin alpha-4/beta-1 [1] and against Integrin alpha-4/beta-7 were 165 nM and 4 nM, respectively.
For `CCN(CC)C(=O)N(CC)c1cnc(N(CC)CC)nc1N[C@@H](Cc1ccc(OC(=O)N2CCCC2)cc1)C(=O)O`, in that order: 1050 nM and 6 nM.
On to `CCN(CC)c1ncc(N(CC)C(=O)Nc2ccccc2)c(N[C@@H](Cc2ccc(OC(=O)N3CCCC3)cc2)C(=O)O)n1`, for which the concentration for half-maximal inhibition (IC50) came out at 3220 nM at Integrin alpha-4/beta-1 [1], 67 nM at Integrin alpha-4/beta-7 and 7.5 nM on Integrin alpha-4/beta-1 [2].
The matching figures for `CCN(CC)c1ncc(N(CC)C(=O)NCc2ccccc2)c(N[C@@H](Cc2ccc(OC(=O)N3CCCC3)cc2)C(=O)O)n1`: 7150 nM, 174 nM and 18.5 nM.
The matching figures for `CCN(CC)c1ncc(N(CC)C(=O)NCCc2ccccc2)c(N[C@@H](Cc2ccc(OC(=O)N3CCCC3)cc2)C(=O)O)n1`: 5830 nM, 29 nM and 12 nM.
For `CCN(CC)c1ncc(N(CC)S(C)(=O)=O)c(N[C@@H](Cc2ccc(OC(=O)N3CCCC3)cc2)C(=O)O)n1`, in that order: 7930 nM, 217 nM and 15.5 nM.
Take `CCN(CC)c1ncc(N(CC)S(=O)(=O)N(C)C)c(N[C@@H](Cc2ccc(OC(=O)N3CCCC3)cc2)C(=O)O)n1`: the figures for the concentration for half-maximal inhibition (IC50) on Integrin alpha-4/beta-1 [1], against Integrin alpha-4/beta-7 and against Integrin alpha-4/beta-1 [2] were 18600 nM, 419 nM and 50.7 nM, respectively.
In the case of `CCN(CC)c1ncc(N(CC)c2ccccc2F)c(N[C@@H](Cc2ccc(OC(=O)N3CCCC3)cc2)C(=O)O)n1`, the IC50 worked out at 4550 nM against Integrin alpha-4/beta-7 and 97.1 nM against Integrin alpha-4/beta-1 [2].

Broadly, the IC50 is the point on the concentration scale where inhibition reaches its midpoint.

The values are drawn from ChEMBL document CHEMBL2406934, “Orally available and efficacious α4β1/α4β7 integrin inhibitors” (Bioorg Med Chem Lett, 2013).
